Measured values from patent US20150197480A9 (Academia Sinica, priority 2013, published 2015).
Values after ≈ are worked out from the molar mass of the structure shown.

Protein sequences, listed by entry. Tags and fused reporters are not part of them. Residues count along the entry.
UniProt P43220, 24-463 limits assumed: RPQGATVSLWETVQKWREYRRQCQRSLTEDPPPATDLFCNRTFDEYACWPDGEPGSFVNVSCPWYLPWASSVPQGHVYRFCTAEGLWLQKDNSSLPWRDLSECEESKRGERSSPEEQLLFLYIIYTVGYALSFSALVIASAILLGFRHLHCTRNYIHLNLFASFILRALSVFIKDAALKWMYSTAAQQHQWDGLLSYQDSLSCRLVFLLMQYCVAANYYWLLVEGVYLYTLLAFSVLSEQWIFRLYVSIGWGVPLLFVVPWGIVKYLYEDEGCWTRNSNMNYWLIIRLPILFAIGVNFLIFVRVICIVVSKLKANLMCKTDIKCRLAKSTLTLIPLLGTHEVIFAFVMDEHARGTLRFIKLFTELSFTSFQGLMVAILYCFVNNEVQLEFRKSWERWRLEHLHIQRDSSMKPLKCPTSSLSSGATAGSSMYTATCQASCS
UniProt P32301, 22-463 limits assumed: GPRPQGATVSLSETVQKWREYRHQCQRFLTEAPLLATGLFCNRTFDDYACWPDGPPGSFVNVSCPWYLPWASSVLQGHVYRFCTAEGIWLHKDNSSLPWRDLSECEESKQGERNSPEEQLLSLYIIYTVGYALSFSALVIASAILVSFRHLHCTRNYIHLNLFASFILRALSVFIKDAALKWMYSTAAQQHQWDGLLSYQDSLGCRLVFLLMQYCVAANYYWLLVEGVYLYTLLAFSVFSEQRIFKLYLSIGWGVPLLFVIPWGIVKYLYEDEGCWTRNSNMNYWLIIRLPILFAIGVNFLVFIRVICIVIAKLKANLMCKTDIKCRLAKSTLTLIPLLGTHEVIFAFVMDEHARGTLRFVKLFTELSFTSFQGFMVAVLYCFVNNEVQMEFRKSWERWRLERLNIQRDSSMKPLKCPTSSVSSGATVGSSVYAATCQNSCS

Columns and labels:
GLP-1 receptor [1] = biological target: GLP-1 receptor (Homo sapiens, UniProt P43220); experiment: Receptor endocytosis assay, U2OS cells co-expressing GLP-1 receptor and β-arrestin2:GFP; type: cell-based
[2] = tested on: cAMP production elicited by GIP; settings: 0.025 mg/ml; FIG. 11
[3] = tested on: cAMP production elicited by glucagon; settings: 0.025 mg/ml; FIG. 11
GLP-1 receptor [4] = biological target: GLP-1 receptor (Rattus norvegicus, UniProt P32301)

positive modulation effect on GLP-1 elicited receptor endocytosis in the presence of exendin 9 (GLP-1 receptor [1]; FIG. 8, plus 1.8 mM of Exendin 9): diminished | Efficacy of GLP-1 to elicit receptor endocytosis (GLP-1 receptor [1]; Table 2, printed (100%), GLP-1 only or GLP-1 plus indicated compound): 106.6% | IC50 (GLP-1 receptor [4]): 0.3 µg/mL (≈ 0.992 µM)
SMILES: C=C1CC[C@H]2C(C)(C)CCC[C@]2(C)[C@H]1C/C=C(/C=O)CC=O
effect on cAMP production elicited by GIP [2]: do not affect | effect on cAMP production elicited by glucagon [3]: do not affect
